Data: PubChem BioAssay AID2147 (National Center for Advancing Translational Sciences (NCATS), 2009)
The entries are a selection whose mix differs from that of the whole data set. Some of these compounds have results that are not shown, active ones among them. Inconclusive results are not listed. Calls of active or inactive are those of the source. The call rests on the fitted dose curve; in most records, active means well fitted inhibition curve with a large enough effect (not every such curve was filed as active); inconclusive means small, poorly fitted or top-dose-only effect, or another doubt; inactive means no such curve, though single readings can be large or run the other way.

The chains behind the UniProt entries cited, without tags or fusion partners. Residues count along the entry.
UniProt B2RXH2, 1-337 limits assumed: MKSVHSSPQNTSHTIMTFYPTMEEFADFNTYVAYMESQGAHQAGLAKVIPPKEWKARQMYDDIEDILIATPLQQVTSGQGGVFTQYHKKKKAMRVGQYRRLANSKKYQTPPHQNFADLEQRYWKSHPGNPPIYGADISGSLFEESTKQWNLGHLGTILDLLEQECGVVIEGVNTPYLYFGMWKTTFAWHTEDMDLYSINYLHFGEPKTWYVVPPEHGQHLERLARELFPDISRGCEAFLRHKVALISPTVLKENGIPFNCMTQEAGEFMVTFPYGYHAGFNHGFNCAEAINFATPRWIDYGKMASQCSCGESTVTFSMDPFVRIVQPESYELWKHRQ

target: Lysine-specific demethylase 4E (Homo sapiens) (UniProt B2RXH2); assay: qHTS Assay for Inhibitors of Human Jumonji Domain Containing 2E (JMJD2E); conditions: JMJD2E catalytic domain, FDH-coupled NADH fluorescence (FDH is formaldehyde dehydrogenase); at 57.1 µM (top of the series)
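Further: 0% = wells with enzyme and -100% = buffer wells without enzyme; nearly all actives have a fitted effect of over 50% in size.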

Structure (SMILES)	activity change, negative = inhibition
O=C(OC1CN2CCC1CC2)C(CO)(c1ccccc1)c1ccccc1 (configuration not stated)	inactive: -2.86%
COc1cccc(C(=O)NCC2(N3CCCCC3)CCCCC2)c1	inactive: -0.724%
CN(C)C1CCCC1OC(=O)C(O)(c1ccccc1)c1ccccc1 (configuration not stated)	inactive: -1.11%
Cc1ccccc1C(=O)NCC1(N2CCCCC2)CCCCC1	inactive: -2.06%
O=C(NCC1(N2CCCCC2)CCCCC1)c1cc([N+](=O)[O-])ccc1Cl	inactive: -3.92%
CC(C)N1C(=O)CC2(CCN(CCOC(=O)C(O)(c3ccccc3)c3ccccc3)CC2)C1=O	inactive: -9.87%
CCN(CC)CC(C)C(C)OC(=O)C(O)(c1ccccc1)c1ccccc1 (configuration not stated)	inactive: -1.1%
